US20120277211A1, “METHODS AND COMPOSITIONS FOR THE TREATMENT OF PSYCHOTIC DISORDERS THROUGH THE IDENTIFICATION OF THE SULT4A1-1 HAPLOTYPE” (priority 2009, published 2012)

Test system: schizophrenia patients

SMILES | HR, discontinuation due to TAEs (SULT4A1-1 positive olanzapine / SULT4A1-1 negative olanzapine) | HR, discontinuation due to treatment emergent side effects (SULT4A1-1 positive risperidone / SULT4A1-1 positive all other drugs) | HR, discontinuation due to treatment emergent side effects (Unsegmented risperidone / Unsegmented all other drugs)
Cc1cc2c(s1)Nc1ccccc1N=C2N1CCN(C)CC1 [Olanzapine] | 0.67^b |  | 
Cc1nc2n(c(=O)c1CCN1CCC(c3noc4cc(F)ccc34)CC1)CCCC2 [Risperidone] |  | 0.73^a | 0.52^a

Read-outs that look alike come from different tables or passages of the source. Marks after values point to notes of the source that are not given here.
